According to patent US6818620B2, “Synthetic compounds and compositions with enhanced cell binding” (The Regents of the University of California, priority 1991, dated 2004):

System: cells
Assay: Relative cell-binding activity of synthetic peptides (relative to the SEQ ID NO:1 peptide / P-15, or to collagen)
Assay type: cell-based
Experimental: Several more synthetic peptides were prepared and tested for cell binding activity (relative to the SEQ ID NO:1 peptide) all of which have the β-bend feature and which have excellent cell binding activity.
The relative efficiencies of some synthetic peptides of this invention for cell-binding activity (relative to the inventive peptide illustrated in Examples 1 and 2) are set out in Table 4.

## -Ile-Ala- (IA; OTHER INFORMATION: synthetic peptide; OTHER INFORMATION: N-acetyl Isoleucine; OTHER INFORMATION: alanyl-methylamide) [the dipeptide -Ile-Ala- itself]
  biological activity relative to that of P-15: 60%
  cell binding activity compared with P-15 region / SEQ ID NO:1 peptide (in words): quite active
